The target in the assay is Nociceptin receptor (Homo sapiens, UniProt P41146). Put plainly: Receptor Binding Assay: The hNOP receptor binding assay was performed as homogeneous SPA-assay (scintillation proximity assay) using the assay buffer 50 mM TRIS-HCl. 10 mM MgCl2. 1 mM EDTA (pH 7.4). The final assay volume (250 ul/well) included 0.5 nM of [leucyl-3H]nociceptin as ligand (PerkinElmer Life Sciences. Inc. Boston. Mass. USA). and either test compound in dilution series or 1 uM unlabell. Background: SPA uses beads or plates that emit light when radiolabelled molecules are held near them.

By UniProt entry, the sequences of proteins in these tests, tags left out.
UniProt P41146, whole entry: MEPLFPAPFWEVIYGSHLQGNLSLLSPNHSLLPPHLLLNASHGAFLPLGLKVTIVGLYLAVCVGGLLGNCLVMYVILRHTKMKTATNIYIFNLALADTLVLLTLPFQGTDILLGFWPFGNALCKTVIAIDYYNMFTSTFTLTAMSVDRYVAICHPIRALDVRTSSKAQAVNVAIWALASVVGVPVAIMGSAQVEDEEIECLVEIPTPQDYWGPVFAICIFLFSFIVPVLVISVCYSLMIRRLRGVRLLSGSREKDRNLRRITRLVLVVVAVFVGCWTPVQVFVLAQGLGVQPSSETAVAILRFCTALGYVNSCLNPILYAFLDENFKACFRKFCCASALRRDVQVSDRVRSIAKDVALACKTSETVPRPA

By Ki is commonly meant the equilibrium dissociation constant of an inhibitor or competing ligand from its target. A low value points to tighter binding. Take `CN(C)[C@]1(c2ccccc2)CC[C@]2(CC1)CN(Cc1cccc(C3CC3)c1)C(=O)N2`: the Ki was 1830 nM.

`CN(C)[C@]1(c2ccccc2)CC[C@]2(CC1)CN(Cc1cccc(S(C)(=O)=O)c1)C(=O)N2CC1CCC1` registered a Ki of 53.7 nM.

With `COc1ccc(CN2C[C@]3(CC[C@](c4ccccc4)(N(C)C)CC3)N(CC3CCCO3)C2=O)cc1` (stereo partly drawn), the Ki was determined as 310 nM.

The record behind these values is ChEMBL document CHEMBL5728091, “3-((hetero-)aryl)-alkyl-8-amino-2-oxo-l,3-diaza-spiro-[4.5]-decane derivatives” (2020).
